{"sequences": {"note": "Sequences of proteins named here, by UniProt entry; tags and fusion partners are left off.", "UniProt P35222, whole entry": "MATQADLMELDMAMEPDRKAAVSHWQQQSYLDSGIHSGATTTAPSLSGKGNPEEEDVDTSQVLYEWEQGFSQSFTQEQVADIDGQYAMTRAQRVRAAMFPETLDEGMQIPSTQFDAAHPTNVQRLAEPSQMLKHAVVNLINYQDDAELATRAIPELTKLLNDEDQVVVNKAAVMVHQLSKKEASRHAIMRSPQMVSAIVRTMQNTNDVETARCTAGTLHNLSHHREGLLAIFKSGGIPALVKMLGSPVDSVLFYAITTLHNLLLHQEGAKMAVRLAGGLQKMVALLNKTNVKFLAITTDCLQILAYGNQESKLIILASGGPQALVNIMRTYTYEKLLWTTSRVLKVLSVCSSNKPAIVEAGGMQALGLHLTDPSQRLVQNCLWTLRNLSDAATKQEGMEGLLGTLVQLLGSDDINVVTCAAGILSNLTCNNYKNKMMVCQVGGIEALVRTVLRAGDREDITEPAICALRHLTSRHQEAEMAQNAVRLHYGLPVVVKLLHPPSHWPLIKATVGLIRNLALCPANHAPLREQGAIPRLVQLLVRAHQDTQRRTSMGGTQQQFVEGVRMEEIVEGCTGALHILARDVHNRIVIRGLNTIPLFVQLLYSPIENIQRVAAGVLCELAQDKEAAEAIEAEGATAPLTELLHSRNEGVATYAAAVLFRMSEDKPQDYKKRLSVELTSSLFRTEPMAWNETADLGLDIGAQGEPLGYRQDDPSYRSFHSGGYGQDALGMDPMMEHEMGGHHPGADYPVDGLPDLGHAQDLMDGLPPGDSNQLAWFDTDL"}, "source": "patent US20240360179A1", "about": "“STAPLED PEPTIDES AND METHODS THEREOF” (FOG PHARMACEUTICALS, INC., priority 2021, published 2024)", "data": [{"target": "T1, full-length B-Catenin (Uniprot ID P35222) (Homo sapiens, UniProt P35222)", "T1 construct": "10 nM full-length B-Catenin (Uniprot ID P35222)", "assay": "biochemical", "format": "binding", "conditions": "beta-Catenin FP IC50 (nM), competition fluorescence polarization", "units": {"IC50": "nM"}, "values": [{"smiles": "CCCC[C@@H]1NC(=O)C(C)(C)NC(=O)[C@H](Cc2cccc(C(=O)O)c2)NC(=O)[C@H](CC(=O)O)NC(=O)C2(CCCC=CCCCOC(=O)N3CC[C@@]4(C3)NC(=O)[C@H](CCCCNC(=O)CC[C@@H](C(=O)N[C@@H](C)C(N)=O)NC(=O)[C@H](Cc3csc5ccccc35)NC(=O)[C@H](Cc3ccsc3)NC4=O)NC(=O)[C@H](Cc3ccccc3)NC1=O)CCCC=CC[C@]1(CCCN1C(C)=O)C(=O)N[C@@H](CC(=O)O)C(=O)N[C@@H](CC(C)(C)C)C(=O)N2", "note": "(single isomer, unassigned) [I-527, Ac-PL3-Asp-Npg-B5-Asp-3COOHF-Aib-nLeu-Phe-Lys*3-PyrS2-3Thi-BztA-GlnR*3-Ala-NH2]", "IC50": "< 50"}, {"smiles": "CC(=O)N1CCC[C@]12CC=CCCCC1(CCCC=CCCCOC(=O)N3CC[C@@]4(C3)NC(=O)[C@H](CCCCNC(=O)CC[C@@H](C(=O)N[C@@H](C)C(N)=O)NC(=O)[C@H](Cc3csc5ccccc35)NC(=O)[C@H](Cc3ccsc3)NC4=O)NC(=O)[C@H](Cc3ccccc3)NC(=O)[C@H](CC3CCC3)NC(=O)C(C)(C)NC(=O)[C@H](Cc3cccc(C(=O)O)c3)NC(=O)[C@H](CC(=O)O)NC1=O)NC(=O)[C@H](CC(C)(C)C)NC(=O)[C@H](CC(=O)O)NC2=O", "note": "(single isomer, unassigned) [I-531, Ac-PL3-Asp-Npg-B5-Asp-3COOHF-Aib-Cba-Phe-Lys*3-PyrS2-3Thi-BztA-GlnR*3-Ala-NH2]", "IC50": "< 50"}, {"smiles": "CC(=O)N1CCC[C@]12CC=CCCCC1(CCCC=CCCCOC(=O)N3CC[C@@]4(C3)NC(=O)[C@H](CCCCNC(=O)CC[C@@H](C(=O)N[C@@H](C)C(N)=O)NC(=O)[C@H](Cc3csc5ccccc35)NC(=O)[C@H](Cc3ccsc3)NC4=O)NC(=O)[C@H](Cc3ccccc3)NC(=O)[C@H](C)NC(=O)C(C)(C)NC(=O)[C@H](Cc3cccc(C(=O)O)c3)NC(=O)[C@H](CC(=O)O)NC1=O)NC(=O)[C@H](CC(C)(C)C)NC(=O)[C@H](CCC(=O)O)NC2=O", "note": "(single isomer, unassigned) [I-543, Ac-PL3-Glu-Npg-B5-Asp-3COOHF-Aib-Ala-Phe-Lys*3-PyrS2-3Thi-BztA-GlnR*3-Ala-NH2]", "IC50": "50 to 200"}, {"smiles": "CC(=O)N1CCC[C@]12CC=CCCCC1(CCCC=CCCCOC(=O)N3CC[C@@]4(C3)NC(=O)[C@H](CCCCNC(=O)CC[C@@H](C(=O)N[C@@H](C)C(N)=O)NC(=O)[C@H](Cc3csc5ccccc35)NC(=O)[C@H](Cc3ccsc3)NC4=O)NC(=O)[C@H](Cc3ccccc3)NC(=O)[C@H](C)NC(=O)C(C)(C)NC(=O)[C@H](Cc3cccc(C(=O)O)c3)NC(=O)[C@H](CC(=O)O)NC1=O)NC(=O)[C@H](CC(C)(C)C)NC(=O)[C@H](CCC(=O)O)NC2=O", "note": "(single isomer, unassigned) [I-544, Ac-PL3-Glu-Npg-B5-Asp-3COOHF-Aib-Ala-Phe-Lys*3-PyrS2-3Thi-BztA-GlnR*3-Ala-NH2]", "IC50": "200 to 750"}, {"smiles": "CC(=O)N1CCC[C@]12CC=CCCCC1(CCCC=CCCCOC(=O)N3CC[C@@]4(C3)NC(=O)[C@H](CCCCNC(=O)CC[C@@H](C(=O)N[C@@H](C)C(N)=O)NC(=O)[C@H](Cc3csc5ccccc35)NC(=O)[C@H](Cc3ccsc3)NC4=O)NC(=O)[C@H](Cc3ccc(F)cc3)NC(=O)[C@H](C)NC(=O)C(C)(C)NC(=O)[C@H](Cc3cccc(C(=O)O)c3)NC(=O)[C@H](CC(=O)O)NC1=O)NC(=O)[C@H](CC(C)(C)C)NC(=O)[C@H](CC(=O)O)NC2=O", "note": "(single isomer, unassigned) [I-568, Ac-PL3-Asp-Npg-B5-Asp-3COOHF-Aib-Ala-4FF-Lys*3-PyrS2-3Thi-BztA-GlnR*3-Ala-NH2]", "IC50": "< 50"}, {"smiles": "CC(=O)N1CCC[C@]12CC=CCCCC1(CCCC=CCCCOC(=O)N3CC[C@@]4(C3)NC(=O)[C@H](CCCCNC(=O)CC[C@@H](C(=O)N[C@@H](C)C(N)=O)NC(=O)[C@H](Cc3csc5ccccc35)NC(=O)[C@H](Cc3ccsc3)NC4=O)NC(=O)[C@H](Cc3ccc(Cl)cc3)NC(=O)[C@H](C)NC(=O)C(C)(C)NC(=O)[C@H](Cc3cccc(C(=O)O)c3)NC(=O)[C@H](CC(=O)O)NC1=O)NC(=O)[C@H](CC(C)(C)C)NC(=O)[C@H](CC(=O)O)NC2=O", "note": "(single isomer, unassigned) [I-570, Ac-PL3-Asp-Npg-B5-Asp-3COOHF-Aib-Ala-4ClF-Lys*3-PyrS2-3Thi-BztA-GlnR*3-Ala-NH2]", "IC50": "< 50"}, {"smiles": "CC(=O)N1CCC[C@]12CC=CCCCC1(CCCC=CCCCOC(=O)N3CC[C@@]4(C3)NC(=O)[C@H](CCCCNC(=O)CC[C@@H](C(=O)N[C@@H](C)C(N)=O)NC(=O)[C@H](Cc3csc5ccccc35)NC(=O)[C@H](Cc3ccsc3)NC4=O)NC(=O)[C@H](Cc3ccc(Br)cc3)NC(=O)[C@H](C)NC(=O)C(C)(C)NC(=O)[C@H](Cc3cccc(C(=O)O)c3)NC(=O)[C@H](CC(=O)O)NC1=O)NC(=O)[C@H](CC(C)(C)C)NC(=O)[C@H](CC(=O)O)NC2=O", "note": "(single isomer, unassigned) [I-572, Ac-PL3-Asp-Npg-B5-Asp-3COOHF-Aib-Ala-4BrF-Lys*3-PyrS2-3Thi-BztA-GlnR*3-Ala-NH2]", "IC50": "< 50"}, {"smiles": "CC(=O)N1CCC[C@]12CC=CCCCC1(CCCC=CCCCOC(=O)N3CC[C@@]4(C3)NC(=O)[C@H](CCCCNC(=O)CC[C@@H](C(=O)N[C@@H](C)C(N)=O)NC(=O)[C@H](Cc3csc5ccccc35)NC(=O)[C@H](Cc3ccsc3)NC4=O)NC(=O)[C@H](Cc3cccc(F)c3)NC(=O)[C@H](C)NC(=O)C(C)(C)NC(=O)[C@H](Cc3cccc(C(=O)O)c3)NC(=O)[C@H](CC(=O)O)NC1=O)NC(=O)[C@H](CC(C)(C)C)NC(=O)[C@H](CC(=O)O)NC2=O", "note": "(single isomer, unassigned) [I-574, Ac-PL3-Asp-Npg-B5-Asp-3COOHF-Aib-Ala-3FF-Lys*3-PyrS2-3Thi-BztA-GlnR*3-Ala-NH2]", "IC50": "< 50"}, {"smiles": "CC(=O)N1CCC[C@]12CC=CCCCC1(CCCC=CCCCOC(=O)N3CC[C@@]4(C3)NC(=O)[C@H](CCCCNC(=O)CC[C@@H](C(=O)N[C@@H](C)C(N)=O)NC(=O)[C@H](Cc3csc5ccccc35)NC(=O)[C@H](Cc3ccsc3)NC4=O)NC(=O)[C@H](Cc3cccc(Cl)c3)NC(=O)[C@H](C)NC(=O)C(C)(C)NC(=O)[C@H](Cc3cccc(C(=O)O)c3)NC(=O)[C@H](CC(=O)O)NC1=O)NC(=O)[C@H](CC(C)(C)C)NC(=O)[C@H](CC(=O)O)NC2=O", "note": "(single isomer, unassigned) [I-576, Ac-PL3-Asp-Npg-B5-Asp-3COOHF-Aib-Ala-3ClF-Lys*3-PyrS2-3Thi-BztA-GlnR*3-Ala-NH2]", "IC50": "< 50"}, {"smiles": "CC(=O)N1CCC[C@]12CC=CCCCC1(CCCC=CCCCOC(=O)N3CC[C@@]4(C3)NC(=O)[C@H](CCCCNC(=O)CC[C@@H](C(=O)N[C@@H](C)C(N)=O)NC(=O)[C@H](Cc3csc5ccccc35)NC(=O)[C@H](Cc3ccsc3)NC4=O)NC(=O)[C@H](Cc3cccc(Br)c3)NC(=O)[C@H](C)NC(=O)C(C)(C)NC(=O)[C@H](Cc3cccc(C(=O)O)c3)NC(=O)[C@H](CC(=O)O)NC1=O)NC(=O)[C@H](CC(C)(C)C)NC(=O)[C@H](CC(=O)O)NC2=O", "note": "(single isomer, unassigned) [I-578, Ac-PL3-Asp-Npg-B5-Asp-3COOHF-Aib-Ala-3BrF-Lys*3-PyrS2-3Thi-BztA-GlnR*3-Ala-NH2]", "IC50": "< 50"}, {"smiles": "CC(=O)N1CCC[C@]12CC=CCCCC1(CCCC=CCCCOC(=O)N3CC[C@@]4(C3)NC(=O)[C@H](CCCCNC(=O)CC[C@@H](C(=O)N[C@@H](C)C(N)=O)NC(=O)[C@H](Cc3csc5ccccc35)NC(=O)[C@H](Cc3ccsc3)NC4=O)NC(=O)[C@H](Cc3ccccc3F)NC(=O)[C@H](C)NC(=O)C(C)(C)NC(=O)[C@H](Cc3cccc(C(=O)O)c3)NC(=O)[C@H](CC(=O)O)NC1=O)NC(=O)[C@H](CC(C)(C)C)NC(=O)[C@H](CC(=O)O)NC2=O", "note": "(single isomer, unassigned) [I-580, Ac-PL3-Asp-Npg-B5-Asp-3COOHF-Aib-Ala-2FF-Lys*3-PyrS2-3Thi-BztA-GlnR*3-Ala-NH2]", "IC50": "< 50"}, {"smiles": "CC(=O)N1CCC[C@]12CC=CCCCC1(CCCC=CCCCOC(=O)N3CC[C@@]4(C3)NC(=O)[C@H](CCCCNC(=O)CC[C@@H](C(=O)N[C@@H](C)C(N)=O)NC(=O)[C@H](Cc3csc5ccccc35)NC(=O)[C@H](Cc3ccsc3)NC4=O)NC(=O)[C@H](Cc3ccc(C)cc3)NC(=O)[C@H](C)NC(=O)C(C)(C)NC(=O)[C@H](Cc3cccc(C(=O)O)c3)NC(=O)[C@H](CC(=O)O)NC1=O)NC(=O)[C@H](CC(C)(C)C)NC(=O)[C@H](CC(=O)O)NC2=O", "note": "(single isomer, unassigned) [I-588, Ac-PL3-Asp-Npg-B5-Asp-3COOHF-Aib-Ala-4MeF-Lys*3-PyrS2-3Thi-BztA-GlnR*3-Ala-NH2]", "IC50": "< 50"}, {"smiles": "CC(=O)N1CCC[C@]12CC=CCCCC1(CCCC=CCCCOC(=O)N3CC[C@@]4(C3)NC(=O)[C@H](CCCCNC(=O)CC[C@@H](C(=O)N[C@@H](C)C(N)=O)NC(=O)[C@H](Cc3csc5ccccc35)NC(=O)[C@H](Cc3ccsc3)NC4=O)NC(=O)[C@H](Cc3cccc(C)c3)NC(=O)[C@H](C)NC(=O)C(C)(C)NC(=O)[C@H](Cc3cccc(C(=O)O)c3)NC(=O)[C@H](CC(=O)O)NC1=O)NC(=O)[C@H](CC(C)(C)C)NC(=O)[C@H](CC(=O)O)NC2=O", "note": "(single isomer, unassigned) [I-590, Ac-PL3-Asp-Npg-B5-Asp-3COOHF-Aib-Ala-3MeF-Lys*3-PyrS2-3Thi-BztA-GlnR*3-Ala-NH2]", "IC50": "< 50"}, {"smiles": "CC(=O)N1CCC[C@]12CC=CCCCC1(CCCC=CCCCOC(=O)N3CC[C@@]4(C3)NC(=O)[C@H](CCCCNC(=O)CC[C@@H](C(=O)N[C@@H](C)C(N)=O)NC(=O)[C@H](Cc3csc5ccccc35)NC(=O)[C@H](Cc3ccsc3)NC4=O)NC(=O)C3(Cc4ccccc4C3)NC(=O)[C@H](C)NC(=O)C(C)(C)NC(=O)[C@H](Cc3cccc(C(=O)O)c3)NC(=O)[C@H](CC(=O)O)NC1=O)NC(=O)[C@H](CC(C)(C)C)NC(=O)[C@H](CC(=O)O)NC2=O", "note": "(single isomer, unassigned) [I-592, Ac-PL3-Asp-Npg-B5-Asp-3COOHF-Aib-Ala-Aic-Lys*3-PyrS2-3Thi-BztA-GlnR*3-Ala-NH2]", "IC50": "> 1000"}, {"smiles": "CC(=O)N1CCC[C@]12CC=CCCCC1(CCCC=CCCCOC(=O)N3CC[C@@]4(C3)NC(=O)[C@H](CCCCNC(=O)CC[C@@H](C(=O)N[C@@H](C)C(N)=O)NC(=O)[C@H](Cc3csc5ccccc35)NC(=O)[C@H](Cc3ccsc3)NC4=O)NC(=O)[C@H]([C@@H](c3ccccc3)C(C)C)NC(=O)[C@H](C)NC(=O)C(C)(C)NC(=O)[C@H](Cc3cccc(C(=O)O)c3)NC(=O)[C@H](CC(=O)O)NC1=O)NC(=O)[C@H](CC(C)(C)C)NC(=O)[C@H](CC(=O)O)NC2=O", "note": "(single isomer, unassigned) [I-594, Ac-PL3-Asp-Npg-B5-Asp-3COOHF-Aib-Ala-RbiPrF-Lys*3-PyrS2-3Thi-BztA-GlnR*3-Ala-NH2]", "IC50": "> 1000"}]}]}
